TrxR1 inh-1 = inhibitors of rat thioredoxin reductase 1 | O89049 | recombinant rTrxR1, NADPH fluorescence consumption, selenite substrate | Potency, µM (doses to about 114 µM), most hits filed as inhibitors | actives 1% (n = 390,000); further: nearly all actives have a fitted effect of over 65% in size
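Rat TrxR1 (90 nM in the dispensed reagent) was pre-reduced with 400 uM NADPH for 5 min at room temperature, then incubated with compound for 15 min. After 400 uM selenite was added, NADPH fluorescence (Ex 340/Em 450 nm) was followed for 8 min.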
PINK1 expr mod = PINK1 expression modulation | PINK1 immunofluorescence, high-content cytometry, 24 h | Potency, µM (top dose mostly 76.6 µM), usual class: activators | actives 0.2% (n = 410,000); active means well fitted activation curve with a large enough effect; inconclusive means small, poorly fitted or top-dose-only effect; cell line not stated here; further: nearly all actives have a fitted effect of over 65% in size
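Compound titrations (5 concentrations, 24 h) on a stable cell line; DMSO and CCCP controls. Endpoint: fixed-cell PINK1 immunofluorescence with mitochondrial, cell and nuclear markers, scanned by microplate cytometer.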
GALK inhibitor = galactokinase (human) inhibition | actives 0.007% (n = 270,000) | Purified GALK, Kinase-Glo residual ATP luminescence | Potency, µM (top dose mostly 57.5 µM), hits mostly inhibitors | AID 1868
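Luminescence from leftover ATP (Ultra-Glo luciferase/luciferin) served as read-out after a 1 h room-temperature reaction of 5 nM GALK with 35 uM ATP and 100 uM galactose.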
miR-21 reporter = miR-21 reporter, rising signal | HeLa miR-21 FLuc reporter, luciferase, 48 h | Potency, µM (highest dose often 38.3 µM) | 340,000 tested, under 10 active | AID 2288; active = well fitted rising curve with a large enough effect; inconclusive = small, poorly fitted or top-dose-only effect; inactive = no such curve, though single readings can be large or run the other way;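 further: miR-21 action dims this reporter so a rising signal means less miR-21 action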
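Compounds were titrated across several concentrations (up to approximately 40 uM) and incubated 48 hours with HeLa miR-21-FLuc reporter cells (miR-21 target sequence downstream of FLuc, endogenous miR-21). Readout was firefly luciferase luminescence after lytic detection reagent.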
TrxR1 substrate = substrates of rat thioredoxin reductase 1 | AID 588456 | O89049 | purified TrxR1 substrate turnover, NADPH consumption readout | actives 0.01% (n = 390,000) | Potency, µM (doses to about 114 µM); further: nearly all actives have a fitted effect of over 50% in size
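Rat TrxR1, dispensed at 90 nM, was prereduced with 400 uM NADPH (final) for 5 min at ~22 deg C, then incubated with compound 15 min before 400 uM selenite. A first-read NADPH fluorescence drop versus no-compound background flagged substrates.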
GR counterassay = counter-screen for TrxR1 inhibitors: human glutathione reductase inhibition | shares compounds with TrxR1 inh-1 | purified GR, DTNB reduction absorbance 405 nm kinetic | activity change, negative = inhibition, % at 57.1 µM | 55 tested, under 10 active | AID 652020
TrxR1 inh-2 = blocks rat thioredoxin reductase 1 in hit validation; shares compounds with TrxR1 inh-1; recombinant TrxR1, NADPH fluorescence consumption, selenite substrate; Potency, µM, actives largely listed as inhibitors; actives 50% (n = 55); AID 652023
TrxR1 insulin MOA = TrxR1 inhibitors: insulin reduction mechanism-of-action test. shares compounds with TrxR1 inh-1. TrxR1 Trx-coupled insulin reduction, NADPH absorbance 340 nm. Potency, µM. actives 20% (n = 55). AID 652037;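 active means compounds with a measured potency under 100 micromolar; inconclusive means filed, but no rule given; inactive means potency at or above that, or unmeasurable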
TrxR1 inh-3 = rat thioredoxin reductase 1 inhibition, DTNB assay. AID 652256. actives 90% (n = 55). Potency, µM. shares compounds with TrxR1 inh-1. purified TrxR1, DTNB reduction, A412;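 active means a half-inhibiting concentration could be measured and was below 100 µM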
Numbers stand for hits; i = inactive; ? = inconclusive; nt = not tested or not shown. A selection: hits, their analogues and other compounds. The true share with any hit is near 1.1%. Unless noted, the call rests on the fitted dose curve; in most records, active means well fitted curve in the direction sought with a large enough effect; inconclusive means small, poorly fitted or top-dose-only effect, or another doubt; inactive means no such curve, though single readings can be large; an effect the other way counts as inactive or inconclusive.

SMILES | TrxR1 inh-1 | PINK1 expr mod | GALK inhibitor | miR-21 reporter | TrxR1 substrate | others
Cc1ccc(-n2c(CCC(=O)O)ccc2-c2cccs2)cc1 | ? | i | i | i | i
CC(C)C(NC(=O)c1ccccn1)c1nnc2n1CCN(Cc1ccc3ccccc3c1)CC2 (stereo not drawn) | nt | i | nt | nt | nt
CC(C)C(C(=O)O)N1C(=O)/C(=C/C=C/c2ccco2)SC1=S (stereo not drawn) | 32µM | i | i | i | ?
O=C1/C(=C/C=C/c2ccco2)SC(=S)N1c1ccc(O)cc1 | 35µM | i | i | i | i
O=C1/C(=C\c2ccco2)SC(=S)N1c1ccc(O)cc1 | i | i | nt | i | i
O=C(NN1C(=O)/C(=C/C=C/c2ccccc2)SC1=S)c1ccncc1 | i | i | i | i | i
O=C(NN1C(=O)/C(=C/C=C/c2ccco2)SC1=S)c1ccncc1 | 13µM | i | i | i | i
COc1ccc(NC(=O)CCN2CCN(CCO)CC2)c(OC)c1 | i | i | nt | i | i
COc1ccccc1NC(=O)CCS(=O)(=O)c1cc2c3c(c1)CCN3C(=O)CC2 | i | i | nt | i | i
CCc1ccc(NC(=O)C(CC)n2c(=O)c(-c3ccccc3NC(C)=O)nc3ccccc32)cc1 (stereo not drawn) | i | i | nt | i | i
O=C(Sc1ccc(Cl)cc1)c1ccccn1 | 1.1µM | i | nt | nt | i
CCOC(=O)N1CCN(Cc2ccc3c(c2)CN(C(=O)c2ccc(C#CC(C)(C)O)o2)CCO3)CC1 | nt | i | nt | nt | nt
O=C(CSc1nnc(NC(=O)C2CC(=O)N(c3ccc(F)cc3)C2)s1)NCc1ccco1 (stereo not drawn) | 32µM | i | i | i | i
COC(=O)[C@@H]1CCCN1Cc1ccc2c(c1)CN(Cc1coc3ccc(C)cc3c1=O)CCO2 | nt | i | nt | nt | nt
Nc1nc(-c2ccc(Cl)cc2)nnc1-c1ccc(Br)cc1 | i | 45µM | i | i | i
c1ccc2c(c1)NCC1CCCN21 (stereo not drawn) | 79µM | i | nt | i | i
Cc1ccc(NC(=O)N2CC3CCCN3c3ccccc32)cc1C (stereo not drawn) | i | i | nt | i | i
O=c1c2oc3ccccc3c2n(Cc2cccc(F)c2)c(=O)n1Cc1ccco1 | i | i | nt | i | i
COCCN(C)C(=O)c1cnn(-c2nccc(-c3cc(OC)ccc3OC)n2)c1C | nt | i | nt | nt | nt
Cc1ccc(C(=O)NCCc2nnc3n2CCN(Cc2ccnc4ccccc24)CC3)c(C)c1 | nt | i | nt | nt | nt
Oc1c(CN2CCOCC2)cc(CN2CCOCC2)cc1CN1CCOCC1 | i | i | nt | nt | i
Oc1cc(O)c(CN2CCOCC2)cc1CN1CCOCC1 | 11µM | i | nt | nt | i
CC(C)(C)OC(=O)N1CCC(c2c(C(=O)NCCN3CCc4ccccc4C3)cnn2-c2ccc(F)cc2)CC1 | i | i | nt | i | i
COC(=O)C1=C(C)NC(=O)/C1=C\c1cccs1 | i | i | i | i | i
COC(=O)C1=C(C)NC(=O)/C1=C\N(C)C | 16µM | i | i | i | i
SMILES | TrxR1 inh-1 | PINK1 expr mod | GALK inhibitor | miR-21 reporter | TrxR1 substrate | others
CNc1ccc(Br)cc(C(=O)/C=C/c2cccc(OC)c2)c1=O | 13µM | i | i | i | i
CNc1ccc(Br)cc(C(=O)/C=C/c2ccc(OC)cc2OC)c1=O | 14µM | i | i | i | i
CC1=Nc2cc(C(=O)NCCc3ccc(Cl)cc3)ccc2Sc2c(C)ccc(C)c21 | i | i | nt | ? | i
S=C(c1ccc(-c2ccc(Cl)c(Cl)c2)o1)N1CCOCC1 | 28µM | nt | i | i | i
S=C(c1ccc(-c2ccc(Br)cc2)o1)N1CCOCC1 | i | i | i | i | i
CCOC(=O)C1=C(C)c2ccccc2N(C(=O)OC)C1(C)C(=O)OCC (stereo not drawn) | 35µM | i | nt | nt | i
N#CC1(NC(=O)COC(=O)c2cc(O)c3ccccc3c2O)CCCCC1 | 28µM | i | nt | nt | i
N#CC1(NC(=O)COC(=O)c2ccccc2[N+](=O)[O-])CCCCC1 | i | i | nt | nt | i
O=C(c1cccc(Cl)c1Cl)N(Cc1ccco1)Cc1cccs1 | 13µM | i | nt | nt | i
C=C1C(=O)OC2C1CCC(C)=C1C(=O)C3OC3(C)C12 (stereo not drawn) | 8.9µM | i | nt | nt | i
CCOC(=O)CNC(=O)CN1CCCN(S(=O)(=O)c2ccc(Br)s2)CC1 | 16µM | i | i | i | i
O=C(CN1CCCN(S(=O)(=O)c2ccc(Br)s2)CC1)Nc1ccc(Cl)cc1 | i | i | i | i | i
Cc1ccc(/C=C/c2nc3ccccc3[nH]2)o1 | 22µM | i | i | i | i
Cc1ccc(/C=C/c2nc3ccccc3[nH]2)cc1 | i | i | nt | ? | i
O=[N+]([O-])c1ccccc1C1Nc2cccc3cccc(c23)N1 | 79µM | i | i | i | i
Oc1ccccc1C1Nc2cccc3cccc(c23)N1 | i | i | i | i | i
O=C(Cn1nc2ccccc2n1)N1CCOc2ccc(CN3CCc4sccc4C3)cc2C1 | nt | i | nt | nt | nt
CCOC(=O)c1c(C)oc2c1c(CN1CCN(C(=O)OCC)CC1)c(O)c1ccccc12 | 1.6µM | i | i | i | i | GR counterassay=i;TrxR1 inh-2=?;TrxR1 insulin MOA=i;TrxR1 inh-3=0.33µM
CCOC(=O)c1c(C)oc2c1c(CN1CCN(CCO)CC1)c(O)c1ccccc12 | 1.1µM | i | i | i | i | GR counterassay=i;TrxR1 inh-2=0.3;TrxR1 insulin MOA=i;TrxR1 inh-3=0.77µM
Cc1ccc(-c2nc(CS(=O)(=O)CC(=O)N3CCN(c4cccc(C)c4C)CC3)c(C)o2)cc1 | i | i | nt | i | i
CCCc1cc(=O)[nH]c2nnc(SCC)n12 | i | i | nt | i | i
CCOc1cc(CNc2ccc(N3CCCC3)cc2)cc(Cl)c1OC | 3.5µM | ? | nt | i | i | GR counterassay=i;TrxR1 inh-2=?;TrxR1 insulin MOA=i;TrxR1 inh-3=8µM
Cc1cccc(N2CCN(c3cc(C)nc4nnnn34)CC2C)c1 (stereo not drawn) | 32µM | i | i | i | i | GR counterassay=i;TrxR1 inh-2=?;TrxR1 insulin MOA=84µM;TrxR1 inh-3=0.11µM
Oc1cc2c(cc1CN1CCN(c3ncccn3)CC1)OCO2 | 25µM | i | i | i | i | GR counterassay=i;TrxR1 inh-2=?;TrxR1 insulin MOA=i;TrxR1 inh-3=i
Fc1ccccc1CN1CCN(c2ncccn2)CC1 | i | i | i | i | i
COc1cc(C(c2nnnn2C2CCCC2)N2CCc3ccccc3C2)ccc1O (stereo not drawn) | 2µM | i | i | i | i | GR counterassay=i;TrxR1 inh-2=2.1;TrxR1 insulin MOA=i;TrxR1 inh-3=0.71µM
CCCC(O)c1nc2ccccc2n1CCCCOc1ccc(OC)cc1 (stereo not drawn) | i | i | nt | i | i

Screens as filed in PubChem.
